# Test results from patent US20250032635A1, “LIGAND-POLAR DRUG CONJUGATES” (priority 2023, published 2025).
# Assays:
# [1] = tested on: NCI-N87; assay: In vitro cytotoxicity assay, NCI-N87; type: cell-based
# Description: (§1) Breast cancer cell line MDA-MB-231 and SK-BR-3, gastric cancer cell line NCI-N87, ovarian cancer cell line SK-OV-3, and pancreatic cancer cell line Capan-1 were purchased from ATCC. Breast cancer cell line JIMT-1 was purchased from Deutsche Sammlung von Mikroorganismen und Zellkulturen (DSMZ, Germany). Gastric cancer cell line MKN45 was purchased from RIKEN. Human umbilical vein endothelial cell line (HUVAC) was purchased from BCRC (Bioresource Collection and Research Center, Hsinchu City, Taiwan).
# (§2) Human MDR1 overexpressed NCI-N87 (NCI-N87-hMDR1) cell line was produced by lentiviral vector-mediated gene transduction. Briefly, the lentiviral transfer vector contains both hEF1α promotor-driven hMDR1 coding sequence (CDS) and hPGK promoter-driven EGFP-IRES-Puro bicistronic cassette. The lentivirus was packaged using second-generation lentiviral system in 293T cell line. After transfection, stable NCI-N87-hMDR1 was selected and maintained in puromycin (0.55 μg/mL) containing RPMI-1640 medium. JIMT-1 and MDA-MB-231 were maintained in DMEM supplemented with 10% heat-inactivated fetal bovine serum (FBS). NCI-N87, NCI-N87-hMDR1, SK—OV-3, and MKN45 were maintained in RPMI-1640 supplemented with 10% heat-inactivated FBS. SK-BR-3 was maintained in McCoy's 5A supplemented with 10% heat-inactivated FBS. Capan-1 was maintained in IMDM supplemented with 20% heat-inactivated FBS. HUVAC was maintained in M199 supplemented with 25 U/mL heparin, 30 μg/mL ECGS and 10% heat-inactivated FBS. All cell lines were cultured at 37° C. under 5% CO2 atmosphere.
# (§3) In Vitro Cytotoxicity Assays of APDCs
# (§4) In vitro cytotoxicity assays were performed as previously described (Boyd and Paull, 1995; Phillips et al., 2008). GI50 was calculated as [(Ti−Tz)/(C−Tz)]×100=50, in which “Tz” represents the cell population at DO; “Ti” represents the cell populations of different ADC concentration groups at D3; and “C” represents the cell population of vehicle group at D3. IC50, the half maximal inhibitory concentration, was calculated from dose-response curves which was generated by four-parameter curve fitting.
# [2] = tested on: MKN45; assay: In vitro cytotoxicity assay, MKN45; type: cell-based; conditions: MKN45, HER2+
# Description: as §1
# (§5) Human MDR1 overexpressed NCI-N87 (NCI-N87-hMDR1) cell line was produced by lentiviral vector-mediated gene transduction. Briefly, the lentiviral transfer vector contains both hEF1α promotor-driven hMDR1 coding sequence (CDS) and hPGK promoter-driven EGFP-IRES-Puro bicistronic cassette. The lentivirus was packaged using second-generation lentiviral system in 293T cell line. […]
# as §4
# [3] = tested on: Capan-1; assay: In vitro cytotoxicity assay, Capan-1; type: cell-based; conditions: Capan-1, HER2++
# Description: as §1, §5, §4
# [4] = tested on: JIMT-1 xenograft; assay: JIMT-1 xenograft tumor model, cytotoxic APDCs; type: in vivo, mice; conditions: single intravenous injection 10 mg/kg at day zero
# Description: Xenograft Tumor Model Experiments for Cytotoxic APDCs
# Experiments of xenograft tumor model with cytotoxic APDCs were performed as previously described (Jumbe et al., 2010).
# [5] = tested on: JIMT-1; assay: In vitro cytotoxicity assay, JIMT-1; type: cell-based; conditions: JIMT-1, HER2++
# Description: as §1, §5, §4
# [6] = tested on: NCI-N87-hMDR1; assay: In vitro cytotoxicity assay, MDR1-overexpressing NCI-N87-hMDR1; type: cell-based
# Description: as §2, §3
# (§6) In vitro cytotoxicity assays were performed as previously described (Boyd and Paull, 1995; Phillips et al., 2008). […] IC50, the half maximal inhibitory concentration, was calculated from dose-response curves which was generated by four-parameter curve fitting.
# [7] = tested on: MDA-MB-231; assay: In vitro cytotoxicity assay, MDA-MB-231; type: cell-based; conditions: MDA-MB-231, HER2+
# Description: as §1, §5, §4
# [8] = tested on: SK-BR-3; assay: In vitro cytotoxicity assay, SK-BR-3; type: cell-based; conditions: SK-BR-3, HER2+++; Table 2
# Description: as §1
# Human MDR1 overexpressed NCI-N87 (NCI-N87-hMDR1) cell line was produced by lentiviral vector-mediated gene transduction. Briefly, the lentiviral transfer vector contains both hEF1α promotor-driven hMDR1 coding sequence (CDS) and hPGK promoter-driven EGFP-IRES-Puro bicistronic cassette. The lentivirus was packaged using second-generation lentiviral system in 293T cell line. After transfection, stable NCI-N87-hMDR1 was selected and maintained in puromycin (0.55 μg/mL) containing RPMI-1640 medium. JIMT-1 and MDA-MB-231 were maintained in DMEM supplemented with 10% heat-inactivated fetal bovine serum (FBS). […]
# as §6
substance,measurement,setting,value
Enhertu,IC50,"[1]; NCI-N87, HER2+++, Table 2",0.97 nM
same,GI50,"[1]; NCI-N87, HER2+++, Table 3",12 nM
same,IC50,"[1]; NCI-N87, Table 4 (MDR1 comparison)",3.1 nM
same,GI50,"[1]; NCI-N87, Table 5 (MDR1 comparison)",49 nM
same,IC50,[2]; Table 2,371 nM
same,GI50,[2]; Table 3,1040 nM
same,IC50,[3]; Table 2,> 1000 nM
same,GI50,[3]; Table 3,56 nM
same,tumor volume as a function of time (FIG. 1),[4],significant tumor growth
same,IC50,[5]; Table 2,> 1000 nM
same,GI50,[5]; Table 3,> 1000 nM
same,IC50,[6]; Table 4,36 nM
same,GI50,[6]; Table 5,> 1000 nM
same,IC50,[7]; Table 2,> 1000 nM
same,GI50,[7]; Table 3,> 1000 nM
same,IC50,[8],0.23 nM
